Compound activity as filed in PubChem BioAssay.
In the library only some 2.8% were active in any assay of this set; here they are far more common.
Statin myotox sup – suppressors of simvastatin-induced myotoxicity in C2C12 myotubes; ATP luminescence, 48 h; scaled: DMSO 0, geranylgeraniol control 100; rescue of ATP level, % at 7.49 µM; actives 0.78% (n = 330,000); AID 602340;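 active means mean ATP rescue above about 67%, or every replicate alone reaching that limit, limit read from the data, passing the limit was not always enough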;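 further: myotubes were challenged with 10 µM simvastatin during compound exposure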
PGC1a acetyl inh – modulators of PGC1a acetylation; U2OS PGC1a acetylation, AlphaScreen anti-acetyl-lysine; with virally co-expressed GCN5 acetyltransferase; inhibition, % at 15.6 µM; actives 0.17% (n = 350,000); AID 651687;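 active means every replicate shows inhibition of at least 40%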
UUG fidelity – modulators of yeast start codon fidelity, primary screen, whole organism, S. cerevisiae, single point, plate reader | AID 602363, 2012 | actives 0.13% (n = 350,000) | activity score, % at 18.7 µM | S. cerevisiae UUG-firefly luciferase reporter, luminescence/redox ratio;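 active means replicate mean at a twofold rise or more, about +100% in these data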;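 further: firefly luciferase made from a UUG start codon reports start codon fidelity; reporter light over untreated wells divided by growth signal over untreated wells; some hits fall short of that in this replicate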
PglD DTNB – PglD (C. jejuni) enzyme inhibition; purified PglD enzyme, DTNB colorimetric CoA detection; inhibition, % at 12.5 µM; actives 0.098% (n = 360,000); AID 602405; in the data active means inhibition above about 16%, passing the limit was not always enough
esBAF inh – inhibitors of esBAF chromatin remodeling in mouse ES cells; actives 2% (n = 350,000); Bmi1-luciferase knock-in reporter, 24 h; 100% = twice the neutral-well signal; AID 602393; reporter increase, % at 12.5 µM; in the data active means activation above about 40%;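 further: a rise in the Bmi1 reporter signal indicates esBAF inhibition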
E-selectin induc – induces E-selectin expression in human endothelial cells. P16581. HUVEC E-selectin immunofluorescence imaging; normalized: neutral wells 0, TNF-alpha wells 100. activation, % at 7.58 µM. actives 0.37% (n = 260,000);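 active means mean E-selectin-positive cell signal at least 10% of the positive control, reached in at least 60% of replicates, without over 20% cell loss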
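Assay system: HUVEC, human umbilical vein endothelial cells / Amount: 3,000 HUVEC/well / Controls: TNF-alpha positive control, DMSO neutral control / Compound dosing: single concentration / Medium: EGM-2 over gelatin coat / Evaluation: percent E-selectin-positive cells / Signal: immunofluorescence imaging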
Hits are given with their value; n = inactive; x = no result.

SMILES	Statin myotox sup	PGC1a acetyl inh	UUG fidelity	PglD DTNB	esBAF inh	E-selectin induc
C[C@H]1CN([C@@H](C)CO)C(=O)c2cccc(NC(=O)NC3CCCCC3)c2O[C@@H]1CN(C)S(C)(=O)=O	n	n	n	n	n	x
C[C@@H]1CCCCO[C@@H](CN(C)Cc2ccc(Cl)c(Cl)c2)[C@H](C)CN([C@H](C)CO)C(=O)c2cc(NS(=O)(=O)c3ccc(F)cc3)ccc2O1	x	n	n	n	n	n
Cn1cc(C(=O)Nc2ccc(F)c(F)c2)cn1	90	n	n	n	n	x
Cc1cnc(C(=O)Nc2ccc(F)c(F)c2)cn1	n	n	n	n	62	x
CCCCOc1ccc(NC(=O)c2cnc(C)cn2)cc1	n	n	n	n	58	x
O=C(NCc1ccc(F)cc1)[C@@H]1[C@@H](CO)[C@@H]2Cn3c(cccc3=O)[C@H]1N2CC1CC1	n	x	n	n	n	n
CCN(CC)S(=O)(=O)c1cccc(-c2nnc(SCC(=O)NCCC3=CCCCC3)n2N)c1	124	n	n	n	n	x
Nn1c(SCC(=O)NCCC2=CCCCC2)nnc1-c1cccnc1	n	n	n	n	x	n
Clc1ccc2nc(CSc3nncn3-c3ccccc3)cn2c1	n	n	n	n	n	x
c1ccc(-n2cnnc2SCc2cn3cccnc3n2)cc1	86	n	n	n	n	x
COc1ccc(NC(=O)Cn2nc3n(c2=S)CCC3)cc1	100	n	n	n	n	x
COc1ccc(NC(=O)CN2CCCC2)cc1	n	n	n	n	n	x
CC(Sc1ncnc2sc(-c3ccccc3)cc12)C(=O)NCC1CCCO1 (stereo not drawn)	n	n	n	n	n	n
CC(Sc1ncnc2sc(-c3ccccc3)cc12)C(=O)N1CCNC1=O (stereo not drawn)	n	n	n	n	n	39
CC(C)N(C(=O)CSc1ncnc2sc(-c3ccccc3)cc12)C(C)C	n	x	n	n	59	x
COC(=O)c1c(C)[nH]c(C(=O)CSc2ncnc3sc(-c4ccccc4)cc23)c1C	x	n	n	n	x	x
CCc1ccc(NC(=O)c2cnc3n(c2=O)CCS3)cc1	n	n	n	n	61	n
CO[C@H]1CN(C)C(=O)c2ccc(NC(=O)NC(C)C)cc2OC[C@H](C)N(C(=O)CC2CC2)C[C@H]1C	n	n	x	n	n	n
Cc1oc(-c2ccc(Cl)cc2)nc1CS(=O)CC(=O)NC1CCCC1 (stereo not drawn)	99	n	n	n	n	x
Cc1ccc(-c2nc(CS(=O)CC(=O)NC3CCCCC3)c(C)o2)cc1 (stereo not drawn)	105	n	n	n	n	x
COCC(=O)Nc1ccc2c(c1)OC[C@@H](C)N(CCc1ccccc1)C[C@@H](C)[C@H](OC)CN(C)C2=O	n	n	n	n	n	n
C/C(=N/Nc1nc(-c2ccc(Cl)cc2)cs1)c1cccs1	144	n	n	n	n	x
O=C(CSc1nnc(-c2ccncc2)n1Cc1ccco1)Nc1ccccc1Cl	x	n	x	x	x	x
O=C(CSc1nnc(-c2ccncc2)n1Cc1ccco1)Nc1nc(-c2ccccc2)cs1	98	n	n	n	n	x
O=C(NCc1nc(-c2ccccc2)no1)c1cccs1	n	n	n	n	n	x
SMILES	Statin myotox sup	PGC1a acetyl inh	UUG fidelity	PglD DTNB	esBAF inh	E-selectin induc
CC(C)(C)c1csc(NC(=O)c2cccs2)n1	n	n	n	n	103	x
O=C(Nc1nc(-c2ccccc2)ns1)c1cccs1	n	n	n	n	44	x
C[C@@H]1CCCCO[C@@H](CN(C)Cc2ccc(C(F)(F)F)cc2)[C@H](C)CN([C@@H](C)CO)C(=O)c2cc(NS(=O)(=O)c3ccc(F)cc3)ccc2O1	x	n	n	n	n	n
O=C(Nc1nc(-c2ccccc2)cs1)c1cccs1	n	n	n	n	62	x
COc1cccc(OC)c1C(=O)Nc1nc(-c2ccccc2)cs1	n	n	n	n	n	x
O=C(Nc1nc(-c2ccc(Cl)s2)cs1)c1cccs1	n	n	n	n	69	x
CCn1c(CCNC(=O)c2cccs2)nnc1SCC(=O)Nc1nc(-c2ccccc2)cs1	n	n	n	n	44	x
C#CCNC(=O)c1cc(-c2ccccc2)sc1N	x	x	x	x	x	n
COC(=O)c1cc(-c2ccccc2)sc1N	n	n	n	n	51	x
Cc1ccc(NC(=O)c2c(O)c3ccccc3n(C)c2=O)nc1	n	n	n	n	48	x
Cc1ccc(NC(=O)c2c(Cl)n(C)c3ccccc23)cc1	n	n	x	x	67	x
Cn1c(=O)c(C(=O)NCc2ccc(F)cc2)c(O)c2ccccc21	n	x	n	n	n	x
Cn1c(=O)c(C(=O)NCc2ccccc2)c(O)c2ccccc21	n	n	n	n	45	x
Cn1c(=O)c(C(=O)Nc2ncccc2O)c(O)c2ccccc21	n	n	n	n	n	x
CCOc1ccc(-c2nc(CSCC(=O)NCCCN3CCCC3=O)c(C)o2)cc1	n	n	n	n	n	x
CCOc1ccc(-c2nc(CSCC(=O)NCCN3CCOCC3)c(C)o2)cc1	102	n	x	x	n	x
Cc1ccc(NC(=O)c2cnccn2)c(Br)c1	n	n	n	n	52	n
Cc1cccc(Oc2nccc(C(F)(F)F)c2C(=O)Nc2ccc(F)cc2F)c1	n	85	x	x	n	n
O=[N+]([O-])c1cc(S(=O)(=O)O)cc([N+](=O)[O-])c1NN(c1ccccc1)c1ccccc1	n	x	n	n	n	56
COc1ccc(S(=O)(=O)Nc2ccccc2C(=O)OC2CCCN(C)C2)cc1OC (stereo not drawn)	82	n	n	n	n	x
COc1ccc(S(=O)(=O)Nc2ccccc2C(=O)NC(C)(C)C)cc1OC	123	n	n	n	n	x
CN1CCCC(OC(=O)c2ccccc2Br)C1 (stereo not drawn)	n	n	n	n	n	n
COc1ccc(NC(C)=O)cc1S(=O)(=O)Nc1ccccc1C(=O)NCCc1ccccc1	n	x	n	n	55	n
C[C@H]1CN([C@@H](C)CO)C(=O)Cc2cc(NC(=O)Cc3ccccc3)ccc2O[C@H]1CN(C)Cc1ccc(C(=O)O)cc1	n	n	n	n	n	n
O=C(CSc1nc(-c2ccccc2)ns1)N1CCOCC1	x	x	x	x	x	n
SMILES	Statin myotox sup	PGC1a acetyl inh	UUG fidelity	PglD DTNB	esBAF inh	E-selectin induc
Cc1cccc(-c2nsc(SCC(=O)N3CCCC3)n2)c1	x	95	n	n	x	x
Cc1ccc(Sc2nc(-c3ccccc3)ccc2C#N)cc1	n	x	n	n	n	x
N#Cc1cc(-c2ccccc2)nnc1Sc1ccc(Cl)cc1	113	n	n	n	n	x
C[C@@H]1CN([C@H](C)CO)C(=O)c2cc(NC(=O)NC3CCCCC3)ccc2O[C@@H]1CN(C)S(=O)(=O)c1ccccc1	n	n	n	n	n	n
COc1ccccc1S(=O)(=O)N1[C@@H]2CNC[C@H]1[C@H]2c1ccc(-c2ccccc2C)cc1	x	x	x	x	x	n
COc1ccccc1NC(=O)C(C)OC(=O)C1CC(=O)N(c2ccc3c(c2)OCCO3)C1 (stereo not drawn)	n	n	n	n	n	107
